This is a selection; strong and weak results do not stand in their true shares. The source made the active and inactive calls. Cut-off read from the data, not from the text of the source: active = inhibition above about 11%; inactive = the rest.
What follows are compounds tested against 1-phosphatidylinositol 4,5-bisphosphate phosphodiesterase beta-3 (Homo sapiens) (UniProt Q01970) (assay: phospholipase C beta3 enzyme inhibition – biochemical, fluorescence, primary screen (AID 720704;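 note: 0% = median of compound wells on plate and 100% = full blocker control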)). Conditions: Purified PLC-beta3, fluorogenic substrate, at 12.2 µM, active compounds read high.

The chains behind the UniProt entries cited, without tags or fusion partners.
UniProt Q01970, whole entry, looked up: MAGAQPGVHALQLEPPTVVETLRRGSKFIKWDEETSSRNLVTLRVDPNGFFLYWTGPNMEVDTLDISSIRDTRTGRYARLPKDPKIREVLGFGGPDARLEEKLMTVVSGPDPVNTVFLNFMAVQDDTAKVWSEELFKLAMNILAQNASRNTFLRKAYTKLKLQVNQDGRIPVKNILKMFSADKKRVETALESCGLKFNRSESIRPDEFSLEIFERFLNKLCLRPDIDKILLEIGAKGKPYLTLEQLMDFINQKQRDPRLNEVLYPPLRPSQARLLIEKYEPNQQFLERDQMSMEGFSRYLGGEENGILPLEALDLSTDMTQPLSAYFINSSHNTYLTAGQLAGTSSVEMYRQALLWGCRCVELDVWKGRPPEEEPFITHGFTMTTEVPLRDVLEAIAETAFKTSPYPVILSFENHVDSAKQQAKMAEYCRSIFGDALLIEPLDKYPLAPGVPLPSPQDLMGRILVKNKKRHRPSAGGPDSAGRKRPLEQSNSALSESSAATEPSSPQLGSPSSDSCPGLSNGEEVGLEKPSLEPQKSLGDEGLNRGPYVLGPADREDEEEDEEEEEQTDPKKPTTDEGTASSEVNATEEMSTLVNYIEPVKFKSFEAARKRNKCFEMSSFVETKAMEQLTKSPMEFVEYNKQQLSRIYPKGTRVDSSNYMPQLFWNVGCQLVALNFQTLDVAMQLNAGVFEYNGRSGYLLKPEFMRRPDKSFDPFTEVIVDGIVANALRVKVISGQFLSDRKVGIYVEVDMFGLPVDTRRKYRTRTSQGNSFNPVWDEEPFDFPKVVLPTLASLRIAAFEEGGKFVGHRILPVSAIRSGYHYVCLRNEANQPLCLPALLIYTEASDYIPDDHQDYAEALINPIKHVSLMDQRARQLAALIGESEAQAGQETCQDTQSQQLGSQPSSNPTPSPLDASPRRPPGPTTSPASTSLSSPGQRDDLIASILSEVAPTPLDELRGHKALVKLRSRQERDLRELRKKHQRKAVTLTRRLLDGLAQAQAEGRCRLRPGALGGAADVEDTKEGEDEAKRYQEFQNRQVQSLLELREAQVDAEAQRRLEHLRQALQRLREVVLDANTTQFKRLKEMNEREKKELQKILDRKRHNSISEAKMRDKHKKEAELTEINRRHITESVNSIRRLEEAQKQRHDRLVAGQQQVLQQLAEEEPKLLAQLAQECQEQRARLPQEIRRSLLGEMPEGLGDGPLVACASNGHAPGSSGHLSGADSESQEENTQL

Structure (SMILES) | inhibition
NC(=O)c1cc([N+](=O)[O-])cc([N+](=O)[O-])c1N | inactive: -3.39%
O=C(NC(Sc1ccncn1)C(Cl)(Cl)Cl)c1ccccc1 (stereo unspecified) | inactive: 1.15%
Oc1ccccc1CNc1ccccn1 | inactive: -0.86%
CC(C)CC(=O)NC(Sc1ccc(Cl)cc1)C(Cl)(Cl)Cl (stereo unspecified) | inactive: -1.71%
Nc1cc(N)c2nonc2c1[N+](=O)[O-] | inactive: -11.3%
CCn1c(=O)n(C2CCN(CC3CCCCCCC3)C[C@H]2CO)c2ccccc21 (stereo partly specified) | inactive: 2.06%
Cc1ccc(NP(=O)(Oc2ccccc2F)Oc2ccccc2F)nc1 | inactive: -5.85%
CN(C(=O)Cc1ccc(Cl)c(Cl)c1)[C@H]1CCCC[C@@H]1N1CCCC1 | inactive: -3.1%
CCOP(=O)(Nc1ccccc1)OCC | inactive: -0.13%
Cc1cc(SC(NC(=O)c2ccc(F)cc2)C(Cl)(Cl)Cl)ncn1 (stereo unspecified) | inactive: 4.49%
CN(C)P(=O)(N(C)C)n1c(Nc2ccccc2)nnc1-c1ccccc1 | inactive: -0.58%
O=P(Nc1nc2ccc(Cl)cc2s1)(c1ccccc1)c1ccccc1 | inactive: -6.14%
CCCC1OP(N)(=O)OCC1CC (stereo unspecified) | inactive: 5.24%
O=C(O)c1ccccc1[As](=O)(O)O | inactive: -1.26%
CC(=O)Nc1ccc([As](=O)(O)O)cc1 | inactive: -4.54%
CCN(N=Nc1nonc1N)c1nonc1N | inactive: 4.64%
CN(C(=O)Cc1ccccc1)C1CC[C@@]2(CCCO2)C[C@@H]1N1CCCC1 (stereo partly specified) | inactive: -7.25%
O=P1(N(CCCl)CCCl)OCCC2CCCCN21 (stereo unspecified) | inactive: 5.98%
Cc1ccc(NP(=O)(Oc2cccc(C)c2)Oc2cccc(C)c2)nc1 | inactive: -4.97%
c1ccc(-c2nn[nH]n2)c(-c2nn[nH]n2)c1 | inactive: 1.88%
CCNC(=S)/N=C(\N)N[N+](=O)[O-] | inactive: 1.97%
O=C(NC1CCS(=O)(=O)C1)NP(=S)(Oc1ccccc1)Oc1ccccc1 (stereo unspecified) | inactive: -2.83%
CN(C)C(=O)Oc1noc2ccccc12 | inactive: -1.05%
O=c1c2cc([N+](=O)[O-])ccc2[nH]c2c([N+](=O)[O-])cc([N+](=O)[O-])cc12 | inactive: -2.2%
Cc1ccccc1OP(=O)(Nc1ccccn1)Oc1ccccc1C | inactive: -8.48%
CC(NC(=O)COC(=O)C(O)(c1ccccc1)c1ccccc1)c1ccccc1 (stereo unspecified) | inactive: -2.72%

Structure (SMILES) | inhibition
CCC(=O)N1C2C3N(C(=O)CC)C1C1N(C(=O)CC)C(C(N1C(=O)CC)N3C(=O)CC)N2C(=O)CC | inactive: -0.64%
O=C(OC1CN2CCC1CC2)c1ccccc1 (stereo unspecified) | inactive: -10%
Cc1ccc(OP(=O)(Nc2ccccn2)Oc2ccc(C)cc2)cc1 | inactive: 2.3%
CC(=O)NC(SC(=S)N(CC(C)C)CC(C)C)C(Cl)(Cl)Cl (stereo unspecified) | inactive: 0.76%
COC(=O)c1cc2c(s1)N=C(c1ccccc1)N(C)P2(=O)N1CCOCC1 (stereo unspecified) | inactive: -5.15%
CC(C)(C)C(=O)NC(Sc1ccccc1)C(Cl)(Cl)Cl (stereo unspecified) | inactive: -5.03%
CCc1cc(O)c([N+](=O)[O-])c(C)c1[N+](=O)[O-] | inactive: -0.35%
CCOc1ccc(C2=NCC(CBr)S2)cc1 (stereo unspecified) | inactive: 1.19%
O=P1(Nc2nc3ccc(Cl)cc3s2)COc2ccccc2O1 (stereo unspecified) | inactive: -0.45%
CC(=O)Nc1ccc(Oc2c([N+](=O)[O-])cc([N+](=O)[O-])cc2[N+](=O)[O-])cc1 | inactive: -0.82%
CC(=O)Nc1ccc([As](=O)(O)O)c(O)c1 | inactive: -1.39%
C[C@@H]1C=CCP(=O)(Oc2ccccc2)O1 (stereo partly specified) | inactive: 6.56%
C[C@H]1OP(=O)(Oc2ccccc2)C[C@@H]2O[C@@H]21 (stereo partly specified) | inactive: 2.14%
Cc1ccccc1CN(C)C(=O)COC(=O)C(O)(c1ccccc1)c1ccccc1 | inactive: -4.34%
COC(=O)C1(C)COP(=O)(NCc2ccccc2)OC1 (stereo unspecified) | inactive: -1.36%
N#C/C(=C\c1ccc(N(CCBr)CCBr)cc1)C(N)=O | inactive: -16.7%
CC(=O)c1ccc(N2CC2c2ccncc2)cc1 (stereo unspecified) | inactive: 3.66%
c1nnnn1CCn1cnnn1 | inactive: 2.85%
CC(C)C(=O)NC(Sc1ccccc1)C(Cl)(Cl)Cl (stereo unspecified) | inactive: -0.05%
O=P(Nc1nccs1)(c1ccccc1)c1ccccc1 | inactive: 2.53%
C[C@H]1OP(=O)(Oc2ccccc2)[C@H](O)[C@H](O)[C@H]1N=[N+]=[N-] (stereo partly specified) | inactive: 2.11%
O=P(Nc1nc2ccccc2s1)(c1ccccc1)c1ccccc1 | inactive: -8.32%
O=P(Nc1ccccn1)(c1ccc(Br)cc1)c1ccc(Br)cc1 | inactive: -3.04%
CN(C)C1(CNC(=O)c2ccc(Cl)c(S(N)(=O)=O)c2)CCCCC1 | inactive: 7.11%
Nc1ccc(CCCCOc2ccccc2)cc1 | inactive: -3.2%
